Measured values as given in patent publication US9856263B2, “Heteroaromatic compounds and their use as dopamine D1 ligands” (PFIZER INC., priority 2014, dated 2018).

By UniProt entry, the sequences of proteins in these tests, tags left out.
UniProt P21728, whole entry: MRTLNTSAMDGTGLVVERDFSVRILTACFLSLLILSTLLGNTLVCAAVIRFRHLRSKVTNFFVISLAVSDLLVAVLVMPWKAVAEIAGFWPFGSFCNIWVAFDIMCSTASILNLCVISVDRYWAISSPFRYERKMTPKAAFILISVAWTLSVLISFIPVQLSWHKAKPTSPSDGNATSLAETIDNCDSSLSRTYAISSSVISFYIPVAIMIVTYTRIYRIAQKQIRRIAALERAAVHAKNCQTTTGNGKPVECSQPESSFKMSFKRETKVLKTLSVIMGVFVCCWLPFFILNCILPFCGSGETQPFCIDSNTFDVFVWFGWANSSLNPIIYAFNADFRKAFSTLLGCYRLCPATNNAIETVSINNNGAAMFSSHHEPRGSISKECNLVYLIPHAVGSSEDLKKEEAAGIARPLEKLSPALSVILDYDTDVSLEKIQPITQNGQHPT

Target: Human D1 Receptor (Homo sapiens (Human), UniProt P21728)
Assay: Human D1 receptor binding assay ([3H]-SCH23390 competition binding)
Conditions: over-expressing LTK human cell lines; 0.5 nM [3H]-SCH23390; 30 min at 37° C.; footnote a = single determination, b = geometric mean of ≧5 determinations; read-out: Human D1 Receptor Binding, Ki (nM); Geometric mean of 2-4 determinations (unless otherwise indicated)
Description: D1 binding assays were performed using over-expressing LTK human cell lines. […] These ligand and tissue concentrations were used in time course studies to determine linearity and equilibrium conditions for binding. […] The pellet was resuspended in assay buffer [50 mM Tris (pH 7.4@ RT) containing 4 mM MgSO4 and 0.5 mM EDTA]. […] Non-specific binding was determined by radioligand binding in the presence of a saturating concentration of (+)-Butaclamol (10 μM), a D1 antagonist After a 30 minute incubation period at 37° C., assay samples were rapidly filtered through Unifilter-96 GF/B PEI-coated filter plates and rinsed with 50 mM Tris buffer (pH 7.4 at 4° C.). […] Ki values were calculated according to the Cheng-Prusoff equation: […]

Ki [nM]	SMILES
20.5	Cc1cc(Oc2nccn3cccc23)ccc1-c1c(C)ncc2nccn12 (single isomer, unassigned) [Example 2, (−)-6-methyl-5-[2-methyl-4-(pyrrolo[1,2-a]pyrazin-1-yloxy)phenyl]imidazo[1,2-a]pyrazine]
5.5	Cc1cc(Oc2nccn3cccc23)ccc1-c1c(C)ncc2nccn12 (single isomer, unassigned) [Example 3, (+)-6-methyl-5-[2-methyl-4-(pyrrolo[1,2-a]pyrazin-1-yloxy)phenyl]imidazo[1,2-a]pyrazine]
4.5	Cc1cc(Oc2nccn3cccc23)ccc1-c1c(C)ncc2nccn12 [Example 1, 6-methyl-5-[2-methyl-4-(pyrrolo[1,2-a]pyrazin-1-yloxy)phenyl]imidazo[1,2-a]pyrazine]
